Data taken from PMC4488387 (Nature methods, 2015).

Target: Nluc-AT1 (Homo sapiens, UniProt P30556)
Experiment: NanoBRET competition binding with TAMRA-AngII, HEK293FT cells
Settings: 1 μM TAMRA-AngII; compared with angiotensin II and candesartan

CCCc1nc(C(C)(C)O)c(C(=O)O)n1Cc1ccc(-c2ccccc2-c2nnn[nH]2)cc1 [olmesartan]
relative affinity in competition with TAMRA-AngII: highest affinity
